Columns and labels:
[1] = Maximum tolerated dose in mice; type: in vivo
[2] = Aqueous solubility at ambient conditions; type: physicochemical

For “cis-ammine(2-methylpyridine)dichloroplatinum(II) [reference compound]”, the “maximum tolerated dose (MTD)” value [1] was 40 mg/kg and the “Aqueous Solubility” value [2] was 700 µg/mL.

Reference: patent US6894049B1, “Platinum complexes as antitumor agents” (AnorMED, Inc., priority 2000, dated 2005)
